In BindingDB's records for US9663465 one finds Ki and IC50 data, which are given here for one compound.

Protein sequences, listed by entry. Tags and fused reporters are not part of them. Lines headed by an entry give the natural chain unless they say otherwise; changes in a name come on top. Residues count along the entry.
UniProt O70528: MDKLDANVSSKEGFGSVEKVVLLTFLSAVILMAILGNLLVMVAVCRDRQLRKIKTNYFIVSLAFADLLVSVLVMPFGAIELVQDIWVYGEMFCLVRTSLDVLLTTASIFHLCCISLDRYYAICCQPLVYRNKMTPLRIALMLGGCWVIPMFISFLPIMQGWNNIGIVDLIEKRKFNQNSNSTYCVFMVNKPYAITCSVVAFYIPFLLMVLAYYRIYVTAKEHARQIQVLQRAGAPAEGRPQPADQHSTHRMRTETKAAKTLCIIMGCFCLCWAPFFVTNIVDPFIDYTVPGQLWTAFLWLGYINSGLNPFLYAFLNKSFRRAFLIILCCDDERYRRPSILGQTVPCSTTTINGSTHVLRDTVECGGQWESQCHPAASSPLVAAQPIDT
UniProt P22303, 32-614 limits assumed: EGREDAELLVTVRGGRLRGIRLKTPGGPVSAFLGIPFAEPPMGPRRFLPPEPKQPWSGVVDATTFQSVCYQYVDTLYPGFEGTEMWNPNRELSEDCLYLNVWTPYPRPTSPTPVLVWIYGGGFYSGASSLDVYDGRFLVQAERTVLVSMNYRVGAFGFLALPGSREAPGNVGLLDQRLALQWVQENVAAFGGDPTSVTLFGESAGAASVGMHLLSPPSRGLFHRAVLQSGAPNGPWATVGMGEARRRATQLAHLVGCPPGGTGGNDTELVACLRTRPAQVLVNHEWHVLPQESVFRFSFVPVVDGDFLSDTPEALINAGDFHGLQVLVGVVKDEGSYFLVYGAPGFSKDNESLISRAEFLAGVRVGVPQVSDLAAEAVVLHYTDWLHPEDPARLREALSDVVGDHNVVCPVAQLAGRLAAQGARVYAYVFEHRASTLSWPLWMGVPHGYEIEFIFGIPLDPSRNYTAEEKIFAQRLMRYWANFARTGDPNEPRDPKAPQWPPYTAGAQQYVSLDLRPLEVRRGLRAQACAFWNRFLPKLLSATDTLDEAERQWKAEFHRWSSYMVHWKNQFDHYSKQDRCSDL

Each structure is given as a SMILES string.

Test [1] deals with 5-hydroxytryptamine receptor 4 (Cavia porcellus, UniProt O70528). Kind of test: Competition Assay.
Test [2] addresses Acetylcholinesterase (Homo sapiens, UniProt P22303). Kind of test: Inhibition Assay.

As a reminder, the Ki is a measure of affinity in units of concentration, obtained from inhibition or displacement. Low values mean tighter binding, high ones weaker binding. As usually defined, the IC50 is the point on the concentration scale where inhibition reaches its midpoint. Low readings indicate inhibition by little substance, high ones a need for much substance. Take `CCCCN1CCC(CCC(=O)c2cc(Br)ccc2OC)CC1`: in test [1], the affinity, expressed as Ki, was 8.9 nM. This compound also showed an IC50 in test [2] of 445 nM.
